The values below are quoted from earlier work in PMC2957478 (Bioorganic & medicinal chemistry letters, 2009).

By UniProt entry, the sequences of proteins in these tests, tags left out. Residues count along the entry.
UniProt P05121, 24-402, species assumed: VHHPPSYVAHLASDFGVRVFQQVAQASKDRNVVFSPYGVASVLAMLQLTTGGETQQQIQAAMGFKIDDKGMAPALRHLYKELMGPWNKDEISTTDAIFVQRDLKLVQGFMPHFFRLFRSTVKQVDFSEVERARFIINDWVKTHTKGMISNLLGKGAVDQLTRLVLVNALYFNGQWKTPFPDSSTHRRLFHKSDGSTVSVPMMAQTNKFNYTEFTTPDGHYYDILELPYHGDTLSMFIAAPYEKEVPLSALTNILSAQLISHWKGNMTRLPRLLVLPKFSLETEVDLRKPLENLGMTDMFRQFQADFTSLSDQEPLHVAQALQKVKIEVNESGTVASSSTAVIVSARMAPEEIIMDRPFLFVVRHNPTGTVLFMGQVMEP

This data set has as its target PAI-1 (Homo sapiens, UniProt P05121). Conditions: cited from earlier work.

pIC50: −log10 of the molar value.

By pIC50 is commonly meant the negative decadic logarithm of the IC50, by convention in mol/L. As to `O=C(O)C(=O)c1cn(Cc2ccccc2)c2ccc(-c3ccc(OC(F)(F)F)cc3)cc12` [tiplaxtinin], the “reported IC50 against PAI-1 (in words)” value is reported as “low micromolar range”. Also, the negative-log IC50 (pIC50) (read-out: PAI-1 IC50 of tiplaxtinin) was 5.01.
